For one compound, Ki results are on record in ChEMBL document CHEMBL5728992, “Fused imidazo-piperidine JAK inhibitors” (2022).

In general, Ki refers to a measure of affinity in units of concentration, obtained from inhibition or displacement.

For this experiment, the target named is T1, Tyrosine-protein kinase JAK3 (Homo sapiens, UniProt P52333).
T1 sequence (P52333 whole entry): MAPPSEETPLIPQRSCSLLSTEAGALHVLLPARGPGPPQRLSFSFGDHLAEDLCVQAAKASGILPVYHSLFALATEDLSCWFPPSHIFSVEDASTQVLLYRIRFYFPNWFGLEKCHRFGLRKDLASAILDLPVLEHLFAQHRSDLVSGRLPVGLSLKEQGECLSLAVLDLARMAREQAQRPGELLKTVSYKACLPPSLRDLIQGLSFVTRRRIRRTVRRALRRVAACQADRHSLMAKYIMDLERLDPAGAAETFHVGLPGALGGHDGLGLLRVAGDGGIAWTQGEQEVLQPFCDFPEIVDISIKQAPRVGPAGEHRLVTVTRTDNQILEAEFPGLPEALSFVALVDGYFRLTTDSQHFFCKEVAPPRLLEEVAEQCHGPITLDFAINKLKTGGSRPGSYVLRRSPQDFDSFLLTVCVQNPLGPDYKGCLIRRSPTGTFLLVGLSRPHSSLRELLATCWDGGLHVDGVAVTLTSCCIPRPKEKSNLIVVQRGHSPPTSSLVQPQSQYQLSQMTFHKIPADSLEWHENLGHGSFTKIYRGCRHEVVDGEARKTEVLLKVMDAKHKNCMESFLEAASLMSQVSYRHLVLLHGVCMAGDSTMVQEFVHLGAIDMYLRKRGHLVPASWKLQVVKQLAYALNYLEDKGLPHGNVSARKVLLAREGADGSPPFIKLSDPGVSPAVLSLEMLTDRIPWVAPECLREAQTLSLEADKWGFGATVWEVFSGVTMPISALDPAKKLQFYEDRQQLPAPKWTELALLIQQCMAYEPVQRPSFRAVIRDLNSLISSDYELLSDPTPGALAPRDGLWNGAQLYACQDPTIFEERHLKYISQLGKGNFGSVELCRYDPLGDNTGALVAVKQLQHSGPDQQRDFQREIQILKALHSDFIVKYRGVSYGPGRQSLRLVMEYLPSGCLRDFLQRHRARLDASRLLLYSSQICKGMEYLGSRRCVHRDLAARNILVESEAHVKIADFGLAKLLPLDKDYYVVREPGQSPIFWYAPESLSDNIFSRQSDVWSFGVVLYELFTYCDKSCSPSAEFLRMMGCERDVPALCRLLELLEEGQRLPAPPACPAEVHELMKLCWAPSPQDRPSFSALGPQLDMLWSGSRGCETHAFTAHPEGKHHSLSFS
In words: Recombinant GST-tagged JAK enzymes and a GFP-tagged STAT1 peptide substrate were obtained from Life Technologies.Serially diluted compounds were pre-incubated with each of the four JAK enzymes and the substrate in white 384-well microplates (Corning) at ambient temperature for 1 h. ATP was subsequently added to initiate the kinase reactions in 10 μL total volume, with 1% DMSO. […] Kinase reactions were allowed to proceed for 1 hour at ambient temperature before a 10 μL preparation of EDTA (10 mM final concentration) and Tb-anti-pSTAT1 (pTyr701) antibody (Life Technologies, 2 nM final concentration) in TR-FRET dilution buffer (Life Technologies) was added. The plates were allowed to incubate at ambient temperature for 1 h before being read on the EnVision reader (Perkin Elmer). A general note: Time-resolved FRET reads energy transfer from a long-lived donor to a nearby acceptor.

Take `CCc1cc(O)c(F)cc1-c1ccc2c(-c3nc4c([nH]3)CN(C)[C@H](C(=O)N3CCN(C)C[C@@H]3C)C4)n[nH]c2c1`: the Ki is 0.16 nM.
